Where two headings read alike, the source gives them in different places.
Target: Rat IL-23R (Rattus norvegicus, UniProt F1LX96)
Test: Rat IL-23R Competitive Binding ELISA
[1] = read-out: Rat IL23/IL23R ELISA IC50, Table E3H

Chains of the proteins cited; added tags and fusions are not shown. Residues count along the entry.
UniProt F1LX96, 1-639: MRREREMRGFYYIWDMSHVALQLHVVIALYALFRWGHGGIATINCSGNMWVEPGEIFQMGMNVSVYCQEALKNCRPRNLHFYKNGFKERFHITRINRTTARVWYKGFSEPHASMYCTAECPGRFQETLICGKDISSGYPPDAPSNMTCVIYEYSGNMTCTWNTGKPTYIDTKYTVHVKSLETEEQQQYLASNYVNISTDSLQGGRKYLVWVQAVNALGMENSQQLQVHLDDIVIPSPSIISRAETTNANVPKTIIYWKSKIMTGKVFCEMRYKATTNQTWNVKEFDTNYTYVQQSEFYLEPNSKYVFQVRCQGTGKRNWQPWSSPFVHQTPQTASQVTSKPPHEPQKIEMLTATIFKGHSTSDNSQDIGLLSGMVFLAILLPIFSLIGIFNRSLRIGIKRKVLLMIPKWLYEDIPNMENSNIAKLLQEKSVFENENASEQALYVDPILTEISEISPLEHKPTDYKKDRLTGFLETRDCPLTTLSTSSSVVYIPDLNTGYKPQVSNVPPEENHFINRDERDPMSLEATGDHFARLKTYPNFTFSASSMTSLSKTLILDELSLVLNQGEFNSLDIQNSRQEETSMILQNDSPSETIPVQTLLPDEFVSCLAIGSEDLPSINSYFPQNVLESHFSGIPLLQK

Q: Which IC50 (read-out: Rat ELISA IL23/IL23R) does the source give for `CC(=O)N[C@H]1CSSC[C@@H](C(=O)N[C@@H](Cc2ccc(O)cc2)C(=O)N[C@@H](Cc2c[nH]c3ccccc23)C(=O)N[C@@H](CCCN)C(=O)N[C@@H](CN)C(=O)N[C@@H](Cc2ccccc2)C(=O)NCC(=O)NCCOCC(=O)N[C@H](CCCCN)C(N)=O)NC(=O)[C@H](CCC(N)=O)NC(=O)[C@H](Cc2c[nH]c3ccccc23)NC(=O)[C@H]([C@@H](C)O)NC(=O)[C@H](CCC(N)=O)NC1=O` here?
A: 276 nM

Q: With `CC(=O)N[C@@H](CCCNC(=N)N)C(=O)N[C@@H]1CCSC[C@@H](C(=O)N[C@@H](Cc2ccc(OCCN)cc2)C(=O)N[C@@H](Cc2ccc3ccccc3c2)C(=O)NC2(C(=O)N[C@@H](CCC(=O)O)C(=O)N[C@@H](CC(N)=O)C(=O)N[C@@H](CC(N)=O)C(N)=O)CCOCC2)NC(=O)[C@H](CCC(N)=O)NC(=O)[C@H](Cc2c[nH]c3ccccc23)NC(=O)[C@H]([C@@H](C)O)NC(=O)[C@@H](CCC(N)=O)NC1=O` as the molecule, how does the IC50 (read-out: ELISA (nM) Rat, IC50, IL-23/IL-23R competitive binding, rat) read?
A: 2 nM

Q: How did the IC50 (read-out: Rat ELISA IL23/IL23R) turn out when `CC(=O)N[C@H]1CSSC[C@@H](C(=O)N[C@@H](Cc2ccc(O)cc2)C(=O)N[C@@H](Cc2c[nH]c3ccccc23)C(=O)N[C@@H](CCCNC(=N)N)C(=O)N[C@H](C(=O)N[C@@H](Cc2ccccc2)C(=O)NCC(=O)NCCOCC(=O)N[C@H](CCCCN)C(N)=O)C(C)C)NC(=O)[C@H](CCC(N)=O)NC(=O)[C@H](Cc2c[nH]c3ccccc23)NC(=O)[C@H]([C@@H](C)O)NC(=O)[C@H](CCC(N)=O)N(C)C1=O` was run?
A: 85 nM

Q: How did the IC50 [1] turn out when `CC(=O)N[C@H]1CSSC[C@@H](C(=O)N[C@@H](Cc2ccc(O)cc2)C(=O)N[C@@H](Cc2c[nH]c3ccccc23)C(=O)NC(C)(C)C(=O)N[C@@H](CCC(=O)O)C(=O)N[C@@H](CC(N)=O)C(=O)NCC(N)=O)NC(=O)[C@H](CCC(N)=O)NC(=O)[C@H](Cc2c[nH]c3ccccc23)NC(=O)[C@H]([C@@H](C)O)NC(=O)[C@H](CCC(N)=O)NC1=O` was run?
A: 34 nM

Q: For `CC(=O)N[C@H]1CSSC[C@@H](C(=O)N[C@@H](Cc2cccc3ccccc23)C(=O)N[C@@H](Cc2ccc3ccccc3c2)C(=O)N[C@@H](CCC(C)C)C(=O)N[C@@H](CCC(=O)O)C(=O)N[C@@H](CC(N)=O)C(=O)NCC(N)=O)NC(=O)[C@H](CCC(N)=O)NC(=O)[C@H](Cc2c[nH]c3ccccc23)NC(=O)[C@H]([C@@H](C)O)NC(=O)[C@H](CCC(N)=O)NC1=O`, which IC50 [1] is on record?
A: 125 nM

Q: `CC(=O)NCCCC[C@H](NC(=O)[C@H](CCCCNC(=O)COCC(=O)NCCCC[C@H](NC(=O)[C@H](Cc1ccc2ccccc2c1)NC(=O)[C@H](Cc1ccc(OCCNC(C)=O)cc1)NC(=O)[C@H]1NC(=O)[C@H](CCC(N)=O)NC(=O)[C@H](Cc2c[nH]c3ccccc23)NC(=O)[C@H]([C@@H](C)O)NC(=O)[C@H](CCC(N)=O)NC(=O)[C@@H](NC(C)=O)C(C)(C)SSC1(C)C)C(=O)N[C@@H](CCCCNC(C)=O)C(=O)N[C@@H](CC(N)=O)C(=O)N[C@@H](CC(N)=O)C(N)=O)NC(=O)[C@H](Cc1ccc2ccccc2c1)NC(=O)[C@H](Cc1ccc(OCCNC(C)=O)cc1)NC(=O)[C@H]1NC(=O)[C@H](CCC(N)=O)NC(=O)[C@H](Cc2c[nH]c3ccccc23)NC(=O)[C@H]([C@@H](C)O)NC(=O)[C@H](CCC(N)=O)NC(=O)[C@@H](NC(C)=O)C(C)(C)SSC1(C)C)C(=O)N[C@@H](CC(N)=O)C(=O)N[C@@H](CC(N)=O)C(N)=O` was tested. Which IC50 (read-out: Rat ELISA, Pen-Pen dimers) did it give?
A: 25 to 100 nM

Q: For `CC(=O)N[C@H]1CSSC[C@@H](C(=O)N[C@@H](Cc2ccc(O)cc2)C(=O)N[C@@H](Cc2c[nH]c3ccccc23)C(=O)N[C@@H](CCCNC(=N)N)C(=O)N[C@H](C(=O)N[C@@H](Cc2ccccc2)C(=O)NCC(=O)NCCOCC(=O)N[C@H](CCCCN)C(N)=O)C(C)C)NC(=O)[C@H](CCC(N)=O)NC(=O)[C@H](Cc2c[nH]c3ccccc23)NC(=O)[C@H]([C@@H](C)O)NC(=O)[C@H](CCCNC(N)=O)NC1=O`, which IC50 (read-out: Rat ELISA IL23/IL23R) is on record?
A: 76 nM

Q: How did the IC50 (read-out: Rat ELISA, Cys/Pen peptides) turn out when `CC(=O)N[C@@H]1C(=O)N[C@@H](CCCNC(=N)N)C(=O)N[C@@H]([C@@H](C)O)C(=O)N[C@@H](Cc2c[nH]c3ccccc23)C(=O)N[C@@H](CCC(N)=O)C(=O)N[C@H](C(=O)N[C@@H](Cc2ccc(O)cc2)C(=O)N[C@@H](Cc2c[nH]c3ccccc23)C(=O)N[C@@H](CCCNC(=N)N)C(=O)N[C@@H](CCCCN)C(=O)N[C@@H](Cc2ccccc2)C(=O)NCC(=O)NCCOCC(=O)N[C@H](CCCCN)C(N)=O)CSSC1(C)C` was run?
A: 100 to 1000 nM

Q: Which IC50 (read-out: Rat ELISA IL23/IL23R) does the source give for `CC(=O)N[C@H]1CSSC[C@@H](C(=O)N[C@@H](Cc2ccc(O)cc2)C(=O)N[C@@H](Cc2c[nH]c3ccccc23)C(=O)N[C@@H](CCCNC(=N)N)C(=O)N[C@@H](CCCCN)C(=O)N[C@@H](Cc2ccccc2)C(=O)NCC(=O)NCCC(=O)N[C@H](CCCCN)C(N)=O)NC(=O)[C@H](C(C)C)NC(=O)[C@H](Cc2c[nH]c3ccccc23)NC(=O)[C@H](CC(=O)O)NC(=O)[C@H](C)NC1=O` here?
A: 33 nM

Q: How did the IC50 (read-out: Rat ELISA IL23/IL23R) turn out when `CC(=O)N[C@H]1CSSC[C@@H](C(=O)N[C@@H](Cc2ccc(O)cc2)C(=O)N[C@@H](Cc2c[nH]c3ccccc23)C(=O)N[C@@H](CCCNC(=N)N)C(=O)N[C@H](C(=O)N[C@@H](Cc2ccccc2)C(=O)NCC(=O)NCCOCC(=O)N[C@H](CCCCN)C(N)=O)C(C)C)NC(=O)[C@H](CCC(N)=O)NC(=O)[C@H](Cc2c[nH]c3ccccc23)NC(=O)[C@H]([C@@H](C)O)NC(=O)[C@H](CCC(N)=O)NC1=O` was run?
A: 62 nM

From US10787490B2
